Assays:
[1] = Chemical stability at pH 3.0 or 7.4, 37℃, HPLC; assay type: physicochemical; settings: buffer
[2] = Metabolic stability in mouse liver S‐9; assay type: in vitro ADME; settings: Table 3; 88 µM, 30 min, 37℃, n = 3
[3] = molecular target: T1, Human FMO1 (Homo sapiens, UniProt Q01740); test: Metabolism by highly purified human FMO1; assay type: in vitro ADME; settings: Table 3; 88 µM, 15 µg FMO1, 30 min, 37℃, n = 3
T1 sequence (Q01740 1-532): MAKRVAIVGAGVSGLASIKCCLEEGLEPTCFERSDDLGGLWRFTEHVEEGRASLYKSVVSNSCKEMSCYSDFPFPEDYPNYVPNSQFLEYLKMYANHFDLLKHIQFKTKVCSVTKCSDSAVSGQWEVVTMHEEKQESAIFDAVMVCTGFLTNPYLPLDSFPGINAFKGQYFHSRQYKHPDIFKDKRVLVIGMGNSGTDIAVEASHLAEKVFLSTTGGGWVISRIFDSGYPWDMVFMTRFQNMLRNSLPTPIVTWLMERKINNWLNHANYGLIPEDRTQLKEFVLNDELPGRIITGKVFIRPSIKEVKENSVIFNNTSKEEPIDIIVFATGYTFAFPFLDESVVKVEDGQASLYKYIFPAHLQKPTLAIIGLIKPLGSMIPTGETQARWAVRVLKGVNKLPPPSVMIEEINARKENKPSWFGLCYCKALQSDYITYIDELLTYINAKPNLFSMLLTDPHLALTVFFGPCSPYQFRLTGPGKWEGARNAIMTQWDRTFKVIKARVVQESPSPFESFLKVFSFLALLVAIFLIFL

[4] = Metabolic stability in human liver S‐9; assay type: in vitro ADME; settings: Table 3; 88 µM, 30 min, 37℃, n = 3

SMILES | half-life ([1]; pH 3) | half-life ([1]; pH 7.4) | Rate metabolized, Mouse S‐9 [2] | Rate metabolized, Human FMO1 [3] | Rate metabolized, Human S‐9 [4]
Cl.[2H]C(C)(N)COc1c(C)cccc1C (stereo not drawn) [Compound 17, 1-(2,6-Dimethylphenoxy)propan-2-d-2-amine hydrochloride] | > 15 days | > 30 days | – | – | –
Cc1cccc(C)c1OCC(C)N (centres unmarked) [Mexiletine, reference compound] | – | – | 0.67 ± 0.04 nmol/min/mg of protein | 5.33 ± 0.08 nmol/min/mg of protein | 0.33 ± 0.1 nmol/min/mg of protein
